Rows were chosen to be rich in hits. Some 0.43% of all compounds tested hit in one or more screens of this group.
HCMV NEC inh: inhibitors of HCMV UL50-UL53 nuclear egress complex interaction | inhibition, % (test concentration not listed) | HTRF UL50-UL53 interaction, normalized percent inhibition | 0.15% of 190,000 active; in the data active means inhibition above about 27%, passing the limit was not always enough
GIV Gai3 FP: inhibitors of GIV peptide binding to Galpha-i3, primary screen, biochemical, fluorescence polarization, FITC-GIV GBA peptide, rat Galphai3 | 90 min; hits give low values; scaled: aluminum fluoride 0%, vehicle 100% | percent of control (FP), % (concentration not given with the values) | 210,000 compounds, 0.42% hits | AID 1224905, 2016;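 active = replicate mean at 85% of control or lower, very high polarization wells dropped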;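 also: wells of about 15 µL received 100 nL stock; the first replicate is given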
GIV-Gai FP conf: GIV-Galpha-i3 inhibition, FP confirmation. shares compounds with GIV Gai3 FP. AID 1259350. fluorescence polarization, mP at 100 µM. FITC-GIV peptide binding to Galphai3, fluorescence polarization; stronger effect = lower value. 38% of 580 active;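 active means inhibition score of 15 or more, meaning 100 minus mean polarization as percent of control over three replicates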
GIV Gai AS conf: confirmation of inhibitors of GIV binding to human Galpha-i3; AlphaScreen Galphai3-GIV binding, purified proteins, 90 min; stronger effect = lower value; 39% of 580 active; AlphaScreen counts at 100 µM; AID 1259351; shares compounds with GIV Gai3 FP;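 active means inhibition score at or above a set limit, where the score is 100 minus the three-replicate mean percent of control signal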
A number is an active result; n = inactive; x = not tested or not shown.

SMILES	HCMV NEC inh	GIV Gai3 FP	GIV-Gai FP conf	GIV Gai AS conf
CC1CCN(c2nc(-c3ccc([N+](=O)[O-])cc3)nc3ccccc23)CC1	x	n	x	x
Cc1cc(C2CCCN2Cc2cn[nH]c2-c2ccc(C)c(C)c2)no1 (configuration not stated)	x	n	x	x
CC(NCCO)c1ccc2c(c1)OCCO2 (configuration not stated)	n	78.2	n	n
CC(NC(=O)c1ccccc1C(=O)NC(C)c1ccc2c(c1)OCCO2)c1ccc2c(c1)OCCO2 (configuration not stated)	n	n	x	x
CCC(=O)Nc1cccnc1-c1ccc(C(=O)Nc2ccc3c(c2)OCO3)cc1	x	n	x	x
Cc1ccc(-c2cnnc(-n3nc(C)c4c3NC(=O)CC4c3ccc(C)c(C)c3)n2)cc1 (configuration not stated)	x	n	x	x
O=C(Nc1nc2ccccc2n1Cc1ccccc1)C1CCCCC1	n	n	x	x
Cc1c(/C=N/N=c2\sc3ccccc3n2C)n(C)n(-c2ccccc2)c1=O	n	x	x	x
CN(C)c1ccc(/C=C/C=N/N=c2/sc3ccccc3n2C)cc1	n	n	n	n
O=C(Nc1nnc(-c2cc3ccccc3o2)o1)c1ccccc1	n	n	x	x
COc1cc(Nc2ncc3ccn(-c4cccc(CCC#N)c4)c3n2)cc(OC)c1OC	n	x	x	x
COc1ccc(-c2nc3c(=O)n(C)c(=O)nc-3n(C)n2)cc1OC	n	57.3	41.5	27053
COc1ccc(-n2ccc(=O)c(-c3nc(-c4ccc(F)cc4)no3)n2)cc1	x	n	x	x
Cn1nc(-c2ccc(F)cc2)nc2c(=O)n(C)c(=O)nc1-2	83.1	14.8	27.8	n
COc1ccc(-c2c(-c3ccc(OC)c(OC)c3)c(C)n(C)c2C)cc1OC	n	n	x	x
CCOC(=O)c1ccccc1NC(=O)CSc1nc2n[nH]c(C)c2c(=N)n1-c1ccc(OCC)cc1	x	n	x	x
COc1cccc(-c2nc3sc4c(c3c(=O)n2CC(=O)Nc2ccccc2C(F)(F)F)CCCC4)c1	n	n	x	x
COc1ccc(-c2noc(CCCC(=O)Nc3nccs3)n2)cc1	n	n	n	n
CNC(=O)CCCc1nc(-c2ccc(OC)cc2)no1	n	n	x	x
CC(C)n1cc(S(=O)(=O)N2CCN(c3ccccc3)CC2)c2cccnc21	x	n	x	x
O=C(O)C1CC(=O)N(Cc2ccc3c(c2)OCO3)C1 (configuration not stated)	n	51.3	18.5	1816
O=C(O)C1CC(=O)N(Cc2ccc(F)cc2)C1 (configuration not stated)	x	n	x	x
CN(C)/C=C/C=C/c1cc(=O)cc(/C=C/C=C/N(C)C)o1	66.9	5.8	25.3	2403
COc1cc(-c2c(C#N)c(N)n3c(nc4ccccc43)c2C#N)cc(Br)c1OC	n	n	x	x
COc1cc2c(cc1OC)CN(CCC(=O)O)CC2	x	n	n	n
SMILES	HCMV NEC inh	GIV Gai3 FP	GIV-Gai FP conf	GIV Gai AS conf
COc1cc2c(cc1OC)CN(CC(N)=O)CC2	n	x	x	x
O=c1ccc(N2CCCN(S(=O)(=O)c3ccc4c(c3)CCCC4)CC2)nn1-c1ccc(F)cc1	n	n	x	x
O=C1C2CC=C(Cl)CC2C(=O)N1CCO (configuration not stated)	n	n	x	x
CCOC(=O)CN1C(=O)C2CC=C(Cl)CC2C1=O (configuration not stated)	n	80.7	n	n
C=CCSc1ncc(Cl)c(C(=O)Nc2sc3c(c2C(=O)OC)CCCC3)n1	n	85.1	n	n
C=CCSc1ncc(Cl)c(C(=O)Nc2sc3c(c2C(=O)OC)CCC3)n1	n	n	x	x
COc1ccc(/C=C2\SC(=O)N(CCC(=O)Nc3c(C)n(C)n(-c4ccccc4)c3=O)C2=O)cc1	n	n	x	x
COc1ccc(/C=C2/SC(=S)N(CCC(=O)Nc3c(C)n(C)n(-c4ccccc4)c3=O)C2=O)cc1	n	57.2	n	n
COc1cscc1C(=O)NC1(O)C(=O)c2ccccc2C1=O	53.2	63.9	n	n
O=C(NN1C(=O)c2ccccc2C1=O)c1ccccc1	n	x	x	x
O=C(NC1(O)C(=O)c2ccccc2C1=O)c1ccccc1	x	52.3	46.7	n
COc1ccccc1C(=O)ON1C(=O)c2ccccc2C1=O	n	n	x	x
CC1=CC(=C2C(=O)c3ccccc3C2=O)C=C(C)N1C(C)C	n	72.7	n	n
CC1=CC(=C2C(=O)c3ccccc3C2=O)C=C(C)N1CCO	n	n	x	x
CCCn1cc(S(=O)(=O)c2ccc(CC)cc2)c(=O)c2cc(F)c(N3CCN(C)CC3)cc21	x	n	x	x
CCCn1cc(S(=O)(=O)c2ccc(OC)cc2)c(=O)c2cc(F)c(N3CCN(C)CC3)cc21	n	67.9	n	n
CC(=O)N1c2nc(-c3ccc(F)cc3)nn2C2(CCCCC2)[C@@H]2CCCC[C@@H]21	n	n	x	x
CC(C)CCNC(=O)C1(c2ccc(NS(=O)(=O)c3ccc(C(C)C)cc3)cc2)CC1	x	n	x	x
COc1cc(Nc2ncc3c(n2)CCN(S(=O)(=O)c2ccc(C(C)C)cc2)C3)cc(OC)c1	n	n	x	x

High-throughput results (PubChem BioAssay)
